Measurements from ChEMBL document CHEMBL6182944, “Substrate Specificity of the Organic Cation Transporters MATE1 and MATE2K and Functional Overlap with OCT1 and OCT2” (J Med Chem, 2025).

Assays:
[1] = biological target: T1, Multidrug and toxin extrusion protein 1 (Homo sapiens, UniProt Q96FL8); assay: Substrate activity at MATE1 (unknown origin) expressed in HEK293 cells assessed as ratio of uptake by the enantiomer with higher value to enantiomer with lower value at […] measured after 1 min by HPLC-MS/MS analysis; type: cell-based; details: hek293, 1 min, dose 2.5 µM
T1 sequence (Q96FL8 whole entry): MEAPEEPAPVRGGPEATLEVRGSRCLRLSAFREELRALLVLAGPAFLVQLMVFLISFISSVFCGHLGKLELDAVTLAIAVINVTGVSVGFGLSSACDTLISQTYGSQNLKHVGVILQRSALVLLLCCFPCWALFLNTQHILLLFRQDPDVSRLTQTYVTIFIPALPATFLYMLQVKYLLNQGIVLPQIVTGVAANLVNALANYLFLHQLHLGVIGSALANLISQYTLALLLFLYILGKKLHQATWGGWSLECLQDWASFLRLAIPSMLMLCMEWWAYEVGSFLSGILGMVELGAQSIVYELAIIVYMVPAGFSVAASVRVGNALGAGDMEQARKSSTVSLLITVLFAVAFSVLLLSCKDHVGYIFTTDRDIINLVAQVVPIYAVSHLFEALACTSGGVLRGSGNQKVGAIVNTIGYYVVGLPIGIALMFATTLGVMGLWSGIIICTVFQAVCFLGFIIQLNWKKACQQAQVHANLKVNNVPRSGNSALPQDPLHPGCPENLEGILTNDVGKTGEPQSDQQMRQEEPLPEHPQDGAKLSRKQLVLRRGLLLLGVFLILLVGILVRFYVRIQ

[2] = biological target: T2, Multidrug and toxin extrusion protein 2 (Homo sapiens, UniProt Q86VL8); assay: Substrate activity at MATE2-K (unknown origin) expressed in HEK293 cells assessed as ratio of uptake by the enantiomer with higher value to enantiomer with lower value at […] measured after 1 min by HPLC-MS/MS analysis; type: cell-based; details: hek293, 1 min, dose 2.5 µM
T2 sequence (Q86VL8 whole entry): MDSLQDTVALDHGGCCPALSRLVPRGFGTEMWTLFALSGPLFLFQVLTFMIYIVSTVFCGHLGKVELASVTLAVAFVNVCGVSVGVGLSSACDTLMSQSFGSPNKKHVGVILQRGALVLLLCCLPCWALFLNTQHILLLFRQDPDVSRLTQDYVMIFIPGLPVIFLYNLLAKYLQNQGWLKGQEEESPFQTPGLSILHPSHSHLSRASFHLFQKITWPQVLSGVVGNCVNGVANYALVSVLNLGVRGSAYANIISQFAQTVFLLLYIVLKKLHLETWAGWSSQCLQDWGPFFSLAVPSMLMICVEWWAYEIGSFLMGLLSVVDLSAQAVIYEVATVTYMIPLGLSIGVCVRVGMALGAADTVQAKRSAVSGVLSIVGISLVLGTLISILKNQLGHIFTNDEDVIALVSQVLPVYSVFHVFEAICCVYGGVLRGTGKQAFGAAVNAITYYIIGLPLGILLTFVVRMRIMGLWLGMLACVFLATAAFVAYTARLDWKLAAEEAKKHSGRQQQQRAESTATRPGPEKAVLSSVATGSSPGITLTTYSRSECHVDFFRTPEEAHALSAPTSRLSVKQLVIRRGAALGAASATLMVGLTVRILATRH

MATE1 = biological target: T3, MATE1 (Homo sapiens, UniProt Q96FL8); assay: in vitro
T3 sequence (Q96FL8 whole entry): T1 sequence (Q96FL8 whole entry)

MATE2-K = biological target: T4, MATE2-K (Homo sapiens, UniProt Q86VL8); assay: in vitro
T4 sequence (Q86VL8 whole entry): T2 sequence (Q86VL8 whole entry)

[3] = biological target: T1, Multidrug and toxin extrusion protein 1; assay: Substrate activity at MATE1 (unknown origin) expressed in HEK293 cells assessed as intrinsic clearance by measuring ratio of Vmax (maximum transport velocity) over Km measured per mg of protein by HPLC-MS/MS analysis; type: cell-based
[4] = biological target: T2, Multidrug and toxin extrusion protein 2; assay: Substrate activity at MATE2-K (unknown origin) expressed in HEK293 cells assessed as intrinsic clearance by measuring ratio of Vmax (maximum transport velocity) over Km measured per mg of protein by HPLC-MS/MS analysis; type: cell-based
not read = substrate: Cc1ncc(C[n+]2csc(CCO)c2C)c(N)n1; assay: not read

## C#CCN(C)C(C)Cc1ccccc1 (racemic)
[1]
  Ratio: > 1
[2]
  Ratio: > 1

## CC(C)(C)NC[C@H](O)COc1nsnc1N1CCOCC1 [TIMOLOL]
MATE1
  uptake ratio at 1 min, […]: < 2
MATE2-K
  uptake ratio at 1 min, […]: < 2

## CCNC(C)Cc1cccc(C(F)(F)F)c1 (racemic) [FENFLURAMINE]
[1]
  Ratio: > 1
[2]
  Ratio: > 1

## CC(C)(C)NCC(O)COc1nsnc1N1CCOCC1 (racemic)
[1]
  Ratio: > 1
[2]
  Ratio: > 1

## CNS(=O)(=O)Cc1ccc2[nH]cc(CCN(C)C)c2c1
[3]
  CL: 59.4 µL/min
[4]
  CL: 24 µL/min

## CCN1CCCC1CNC(=O)c1cc(S(N)(=O)=O)ccc1OC (stereo not drawn) [SULPIRIDE]
MATE1
  uptake ratio at 1 min, […]: > 2
MATE2-K
  uptake ratio at 1 min, […]: > 2

B1: Multidrug and toxin extrusion protein 2 (Homo sapiens) (protein)
chain: T2 sequence (Q86VL8 whole entry)
Not read
  Km: 17.3 µM
